Tested on: C6 glioblastoma cells
Conditions: tianeptine 0.25 nM

CS(=N)(=O)CC[C@H](N)C(=O)O (stereo partly drawn) [MS, 2-amino-4-(S-methylsulfonimidosyl)butanoic acid]
decreased total apoptosis: total apoptosis induced by NH4Cl 10 mM plus glutamate 50 mM (24 h, MS 0.25 μM) | total apoptosis induced by L-glutamate 50 mM (24 h, MS […]) | total apoptosis induced by NH4Cl 10 mM (72 h, MS […])

From patent publication US20090209474A1, “NOVEL USES FOR DRUGS TARGETING GLUTAMINE SYNTHETASE” (NEWTHERA, priority 2005, published 2009)
